AlphaSeq binding of Ab-14 heavy chain variants to a spike HR2 peptide

Values reported by Engelhart et al. 2022, doi:10.1038/s41597-022-01779-4 (FLAb copy).

Antigen: PDVDLGDISGINAS, a 14-residue peptide of the SARS-CoV-2 spike HR2 region.

Each scFv is VH, three GGGGS repeats, VL, as in the parent Ab-14, and differs from it in the CDRs of the heavy chain only.
VH: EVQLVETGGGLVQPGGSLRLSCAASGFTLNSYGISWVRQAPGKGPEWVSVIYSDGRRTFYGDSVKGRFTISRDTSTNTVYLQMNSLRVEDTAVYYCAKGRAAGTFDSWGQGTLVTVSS
VL: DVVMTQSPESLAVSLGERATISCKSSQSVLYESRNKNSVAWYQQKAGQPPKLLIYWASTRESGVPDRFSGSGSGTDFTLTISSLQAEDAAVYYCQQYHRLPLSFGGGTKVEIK

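The library (AAYL49) carries one to three amino acid substitutions per variant, with no insertions or deletions. Affinity was read by AlphaSeq, a pooled yeast mating assay with surface-displayed partners. Pairs that bind mate more often; barcode pairs of the diploids are counted by sequencing. The ratio of observed to expected reads was calibrated, replicate by replicate, on BCL2-family standards whose Kd was known from biolayer interferometry. The assay was run in three technical replicates.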

Substitutions are numbered in sequence along the VH above, starting at 1 (not Kabat). Kd is apparent (estimated from mating counts) and averaged on the log scale over replicates with a signal. Smaller is tighter. "nd" means that the variant was in the library but no mating with the target was seen in any replicate; the authors take this as a sign of poor binding, and no number exists. The list is sorted by this average, lowest first, undetected variants last. Background: pairings of library AAYL49 with three empty control strains gave a value in 15% of cases (median 11 µM, 5th percentile 680 nM). Values in that range, when seen in few replicates, are hard to tell from nonspecific mating.

For R56I/T58H/F59T, the assay gave 430 nM (3 of 3 replicates).
For N30I/S35Q/A102F, the assay gave 1.2 µM (1 of 3 replicates).
For T28R/V50L/Y52I, the assay gave 2.3 µM (1 of 3 replicates).
For S35L/S53A/S107G, the assay gave 2.8 µM (1 of 3 replicates).
For G26E/S63T/T104K, the assay gave 4.2 µM (1 of 3 replicates).
For D54H/V64A/F105P, the assay gave 6.7 µM (1 of 3 replicates).
For L29W/D62E, the assay gave 7.6 µM (2 of 3 replicates).
For I34A/R57C/F105M, the assay gave 12 µM (2 of 3 replicates).
For Y52R/G61Q/K65E, the assay gave 16 µM (1 of 3 replicates).
For L29Y/Y32H/T58K, the assay gave 30 µM (2 of 3 replicates).
For L29S/F59D/S63K, the assay gave 30 µM (1 of 3 replicates).
For F27Y/V50G/F59P, the assay gave 31 µM (1 of 3 replicates).
For F27L/V64R/A101S, the assay gave 40 µM (1 of 3 replicates).
For S35L/F59E/T104D, the assay gave 46 µM (3 of 3 replicates).
For S35W/S63C, the assay gave 51 µM (2 of 3 replicates).
For L29K/F59I/K65P, the assay gave 330 µM (2 of 3 replicates).
For F27Q/V50D/A101S, the assay gave 450 µM (1 of 3 replicates).

Further variants, results first:

1.8 mM (1 of 3 replicates) for L29R/S63M.
nd (0 of 3 replicates) for S35C/K65N/A101M.
nd (0 of 3 replicates) for L29Q/Y52W/V64G.
nd (0 of 3 replicates) for S53E/G61I/T104D.
nd (0 of 3 replicates) for V50Y/T58E/A101H.
nd (0 of 3 replicates) for V50Q/R56Y/A101Q.
nd (0 of 3 replicates) for G33W/K65T/D106Y.
nd (0 of 3 replicates) for I34T/F59Y/A101T.
nd (0 of 3 replicates) for F27N/G33A/I34L.
nd (0 of 3 replicates) for G33Q/V50T/I51E.
nd (0 of 3 replicates) for T28Q/S35K.
nd (0 of 3 replicates) for Y32A/D62Y/R100F.
nd (0 of 3 replicates) for N30W/R57V/G99K.
nd (0 of 3 replicates) for N30M/S35C/Y52L.
nd (0 of 3 replicates) for L29S/D62S/T104C.
nd (0 of 3 replicates) for T28V/D54H/F59C.
nd (0 of 3 replicates) for Y32L/S53Q/T58P.
nd (0 of 3 replicates) for T58D/V64I/K65Y.

From the list, the first 4 with no signal in any replicate:

| changes | Kd | detected |
|---|---|---|
| S35C/K65N/A101M | nd | 0/3 |
| L29Q/Y52W/V64G | nd | 0/3 |
| S53E/G61I/T104D | nd | 0/3 |
| V50Y/T58E/A101H | nd | 0/3 |